Selectivity against PKG, pIC50 and Selectivity against PKA data for five compounds are collected here from patent US8541449B2, “Substituted isoquinolines and isoquinolinones as Rho kinase inhibitors” (Sanofi, priority 2008, dated 2013).

Amino acid sequences for entries named in this document (tags omitted). Residues count along the entry.
UniProt Q13976, 1-686 isoform 2: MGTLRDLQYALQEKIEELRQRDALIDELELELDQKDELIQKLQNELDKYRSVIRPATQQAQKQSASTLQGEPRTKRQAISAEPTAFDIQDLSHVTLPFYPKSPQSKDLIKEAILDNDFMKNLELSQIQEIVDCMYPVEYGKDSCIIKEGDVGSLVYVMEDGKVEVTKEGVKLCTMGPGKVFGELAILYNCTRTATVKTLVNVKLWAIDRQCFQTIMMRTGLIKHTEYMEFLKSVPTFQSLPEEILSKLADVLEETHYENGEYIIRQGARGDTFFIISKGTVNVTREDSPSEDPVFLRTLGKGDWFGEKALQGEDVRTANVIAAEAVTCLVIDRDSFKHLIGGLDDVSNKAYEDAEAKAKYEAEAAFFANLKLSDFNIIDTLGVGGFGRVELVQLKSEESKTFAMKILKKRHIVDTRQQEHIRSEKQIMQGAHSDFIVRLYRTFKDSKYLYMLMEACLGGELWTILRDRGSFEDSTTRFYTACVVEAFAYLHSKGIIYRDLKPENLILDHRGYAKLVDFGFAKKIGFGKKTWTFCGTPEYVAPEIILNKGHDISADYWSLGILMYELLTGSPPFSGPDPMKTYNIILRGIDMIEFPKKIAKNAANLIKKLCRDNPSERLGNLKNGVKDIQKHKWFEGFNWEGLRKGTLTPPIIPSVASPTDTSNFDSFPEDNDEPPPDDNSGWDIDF
UniProt O75116, 11-552 limits assumed: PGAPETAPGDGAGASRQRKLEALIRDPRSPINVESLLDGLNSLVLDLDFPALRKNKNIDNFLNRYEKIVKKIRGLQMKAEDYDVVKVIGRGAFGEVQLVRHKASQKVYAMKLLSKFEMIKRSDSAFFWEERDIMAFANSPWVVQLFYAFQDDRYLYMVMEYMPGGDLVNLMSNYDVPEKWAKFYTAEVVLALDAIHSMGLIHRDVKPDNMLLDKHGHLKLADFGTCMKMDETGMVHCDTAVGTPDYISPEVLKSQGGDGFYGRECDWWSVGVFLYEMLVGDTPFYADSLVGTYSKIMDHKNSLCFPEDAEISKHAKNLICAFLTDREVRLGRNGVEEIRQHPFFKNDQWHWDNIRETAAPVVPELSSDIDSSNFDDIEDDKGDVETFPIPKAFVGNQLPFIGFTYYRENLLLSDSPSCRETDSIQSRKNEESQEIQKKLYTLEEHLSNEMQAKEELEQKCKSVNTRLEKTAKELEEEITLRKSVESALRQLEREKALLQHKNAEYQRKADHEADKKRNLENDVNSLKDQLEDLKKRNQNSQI

Some results are limits rather than exact numbers.

Test [1] concerns the target recombinant human PKG1-beta (Homo sapiens, UniProt Q13976). The test can be described thus: Determination of Protein Kinase G inhibition (Caliper peptide phosphorylation assay). To be noted: recombinant human PKG1-beta versus ROCK II.
Test [2] deals with human recombinant ROCK II (Homo sapiens, UniProt O75116). The test can be described thus: Determination of Rho kinase inhibition (Caliper peptide phosphorylation assay). To be noted: 60 min at 32° C., negative decadal logarithm of the IC50.
The target in the next test is recombinant human PKA (Homo sapiens, UniProt P17612). The test can be described thus: Determination of Protein Kinase A inhibition (Caliper peptide phosphorylation assay). The conditions noted are these: recombinant human PKA versus ROCK II.

With `CCC(N)[C@]1(c2ccc(F)cc2)CC[C@H](Oc2cc3cc[nH]c(=O)c3cc2Cl)CC1` (single isomer, unassigned), the Selectivity against PKG in test [1] is over 1000. Further, the pIC50 entry in test [2] is recorded as “+++++++ (8.0≦pIC50)”. Moreover, the Selectivity against PKA on recombinant human PKA was over 1000.
Consider `CCC(N)[C@]1(c2ccccc2)CC[C@H](Oc2cc3cc[nH]c(=O)c3cc2Cl)CC1` (single isomer, unassigned) [45], for which the Selectivity against PKG in test [1] is over 100. Besides, the pIC50 entry in test [2] is reported as “+++++++ (8.0≦pIC50)”. In addition, the Selectivity against PKA at recombinant human PKA is over 1000.
On the same counts, the results for `CCC(N)[C@]1(c2ccccc2)CC[C@H](Oc2cc3cc[nH]c(=O)c3cc2Cl)CC1` (single isomer, unassigned) [46] are over 1000, “+++++++ (8.0≦pIC50)” and over 1000.
On the same counts, the results for `NC(c1ccc(F)cc1)C1CCC(Oc2cc3cc[nH]c(=O)c3cc2Cl)CC1` (single isomer, unassigned) [51] are over 10, “+++++ (6.0≦pIC50<7.0)” and over 100.
In the case of `NC(c1ccc(F)cc1)C1CCC(Oc2cc3cc[nH]c(=O)c3cc2Cl)CC1` (single isomer, unassigned) [52], the Selectivity against PKG in test [1] is over 300. Moreover, in test [2], the pIC50 result is “+++++++ (8.0≦pIC50)”. Further, on recombinant human PKA, the Selectivity against PKA is over 1000.
